HCMV NEC inh: disrupts HCMV UL50-UL53 complex binding | HTRF UL50-UL53 interaction, normalized percent inhibition | inhibition, % (concentration not given with the values) | actives 0.15% (n = 190,000); in the data active = inhibition above about 27%, passing the limit was not always enough
GIV Gai3 FP: blocks GIV peptide binding to rat Galpha-i3. P08753. Galpha-i3/FITC-GIV peptide fluorescence polarization, 90 min; stronger effect = lower value; scaled: aluminum fluoride 0%, vehicle 100%. percent of control (FP), % (test concentration not listed). 0.42% of 210,000 active. AID 1224905;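 active = replicate mean at 85% of control or lower, very high polarization wells dropped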;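 note: wells of about 15 µL received 100 nL stock; the first replicate is given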
Large screens that a line does not name were inactive. A selection: hits, their analogues and other compounds. The true share with any hit is near 0.46%.

CC(=O)N1CC=C2C(C#N)=C(N)C(C#N)(C#N)C(Cc3ccccc3)C2C1 (stereo not drawn)	none
CCCC1C2CN(Cc3ccccc3)CC=C2C(C#N)=C(N)C1(C#N)C#N (stereo not drawn)	GIV Gai3 FP 20
CC(C)CC1C2CN(Cc3ccccc3)CC=C2C(C#N)=C(N)C1(C#N)C#N (stereo not drawn)	none
CN1CC=C2C(C#N)=C(N)C(C#N)(C#N)C(CCc3ccccc3)C2C1 (stereo not drawn)	GIV Gai3 FP -8.8
Cc1ccc(-c2nc3n(c2CNC(=O)c2cncc(Br)c2)CCS3)cc1	none (no result: HCMV NEC inh)
Cc1cccc(-c2nc(Cn3c(=O)c4cccnc4n(-c4ccccc4)c3=O)c(C)o2)c1	none (no result: HCMV NEC inh)
O=C1c2cccc3cccc(c23)C(=O)N1CC1CCN(C(=O)C2(S(=O)(=O)c3ccccc3)CC2)CC1	none
Cc1ccc2cc(C3CC(c4ccccc4)=NN3C(=O)CCC(=O)O)c(=O)[nH]c2c1 (stereo not drawn)	none (no result: GIV Gai3 FP)
CC(=O)NC(C)c1cc(C(C)(C)C)c(O)c(C(C)(C)C)c1 (stereo not drawn)	none (no result: GIV Gai3 FP)
O=C(Nc1ccc(SCc2nnc(-c3ccccc3)o2)cc1)Nc1cccc(Cl)c1	none (no result: HCMV NEC inh)
COC(CNC(=O)c1ccc(CS(=O)(=O)Cc2ccccc2F)o1)OC	none
CC(=O)[C@]1(O)Cc2c(O)c3c(c(O)c2[C@@H](O[C@H]2C[C@H](N)[C@H](O)[C@H](C)O2)C1)C(=O)c1ccccc1C3=O	GIV Gai3 FP -46
COc1cccc2c1C(=O)c1c(O)c3c(c(O)c1C2=O)C[C@@](O)(C(=O)CO)CC3O[C@H]1CC(N)C(O)C(C)O1 (stereo partly drawn)	none (no result: GIV Gai3 FP)
COc1cccc2c1C(=O)c1c(O)c3c(c(O)c1C2=O)C[C@@](O)(C(C)=O)C[C@@H]3O[C@H]1C[C@H](N)[C@H](O)[C@H](C)O1	GIV Gai3 FP 47
COc1cccc2c1C(=O)c1c(O)c3c(c(O)c1C2=O)C[C@@](O)(C(C)=O)CC3O[C@H]1CC(N)C(O)C(C)O1 (stereo partly drawn)	none (no result: GIV Gai3 FP)
CCc1ccc(-c2nc(CSCC(=O)N3CCc4ccccc4C3)c(C)o2)cc1	none (no result: HCMV NEC inh)
COc1ccc(C2=NN(S(=O)(=O)c3ccc(C)cc3)C(c3ccc(N(C)C)cc3)C2)cc1OC (stereo not drawn)	none
O=C(CSc1ccccc1)N1CCc2c([nH]c3ccccc23)C1c1cccnc1 (stereo not drawn)	none (no result: HCMV NEC inh)
COc1ccc(OCC(=O)Nc2ccccc2SCc2cc(=O)n3c(ncn3C(C)C)n2)cc1	none
Cc1cc(N2CCCC(O)C2)nc(C)n1 (stereo not drawn)	none
N#Cc1nc2c(nc1C#N)-c1ccccc1C2=O	none
O=C1c2ccccc2-c2nc3nnnn3nc21	HCMV NEC inh 103 (no result: GIV Gai3 FP)
COc1cc2c(cc1OC)C1(CCCC1)CN=C2C	none (no result: HCMV NEC inh)
CCn1cc(C(CNC(=O)NCc2ccccc2)c2cccnc2)c2ccccc21 (stereo not drawn)	none
Oc1c(C=NCc2ccccc2)[nH]c2ccc(Br)c(Cl)c12	none (no result: HCMV NEC inh)
Oc1c(C=NC2CCCCC2)[nH]c2ccc(Br)c(Cl)c12	GIV Gai3 FP -64 (no result: HCMV NEC inh)
O=C(c1ccc(F)cc1)N1N=C(c2c(-c3ccccc3)c3cc(Cl)ccc3[nH]c2=O)CC1c1ccco1 (stereo not drawn)	none
O=c1[nH]c2c(s1)C=Nc1cc3ccccc3cc1N2	GIV Gai3 FP 59
O=C(Oc1ccc2c(c1)OCO2)[C@@H]1CCCN1S(=O)(=O)c1ccc(Cl)cc1	none (no result: GIV Gai3 FP)
N=C1/C(=C\c2coc3ccccc3c2=O)C(=O)N=C2SC=NN12	GIV Gai3 FP -55 (no result: HCMV NEC inh)
CN1C(N)=NC(=O)/C1=C/c1coc2ccccc2c1=O	none
O=CN(/C=C1\Sc2ccccc2C1=O)c1cccc2ccccc12	GIV Gai3 FP -0.2
CCC(=O)N(C)/C=C1\Sc2ccccc2C1=O	none
CC1=CS/C(=C(/C#N)C(N)=O)N1c1ccccc1	none
N#C/C(C(=O)c1ccccc1)=C1/SC=C(N)N1c1ccccc1	GIV Gai3 FP -51
Cc1ccc(NC(=O)c2cc3cc4c5c(c3oc2=N)CCCN5CCC4)cc1	GIV Gai3 FP -14
COc1cccc(NC(=O)c2cc3cc4c5c(c3oc2=N)CCCN5CCC4)c1	GIV Gai3 FP -14
N=c1oc2c(Cl)cc(Cl)cc2cc1C(=O)Nc1ccc(F)cc1	none
COc1cccc(NC(=O)c2cc3ccccc3oc2=O)c1	none (no result: GIV Gai3 FP)
COc1ccccc1NC(=O)Nc1ccnn1Cc1ccccc1	HCMV NEC inh 85 (no result: GIV Gai3 FP)
COc1ccccc1NC(=O)Nc1ccnn1C1CCCCC1	none (no result: GIV Gai3 FP)
C/C(=N\N1C(=O)CN(Cc2ccccc2)C1c1ccco1)c1ccc(Cl)cc1 (stereo not drawn)	none
CN(C)c1ccc(/C=C/C(=O)/C=C/c2ccco2)cc1	GIV Gai3 FP 6.8
COC(=O)/C=C/c1ccc2c(c1)OCO2	none (no result: GIV Gai3 FP)
O=C(O)/C=C/c1ccco1	none
CN(C)c1ccc(/C=C/C(=O)/C=C/c2ccc3c(c2)OCO3)cc1	GIV Gai3 FP -64 (no result: HCMV NEC inh)
CC(=O)Nc1ccccc1/C=C/Br	none (no result: GIV Gai3 FP)
CC(C)CN1C(=O)c2ccc(C(=O)O)cc2C1=O	none
COc1ccc(C2=NN(S(=O)(=O)c3ccccc3)C(c3ccccc3)C2)cc1OC (stereo not drawn)	none
O=C(NCC1CCCO1)c1cc2c(s1)-c1ccccc1OC2 (stereo not drawn)	none (no result: HCMV NEC inh)
O=C(NCC1CCCO1)c1cc(-c2ccccc2)c(N2CCCCC2)s1 (stereo not drawn)	HCMV NEC inh 35
CCOc1ccc(NC(=O)c2cc(=O)c3ccccc3o2)cc1	none (no result: GIV Gai3 FP)
COCCCNc1c2c3c(cccc3n(C)c1=O)C(=O)c1ccccc1-2	GIV Gai3 FP -62 (no result: HCMV NEC inh)
CC(=O)Nc1c2c3c(cccc3n(C)c1=O)C(=O)c1ccccc1-2	none (no result: HCMV NEC inh)
COC(=O)CSc1nc(N)c(C#N)c(-c2ccccc2)c1C#N	none
N#Cc1c(N)nc(SCC(N)=O)c(C#N)c1-c1ccc(Br)cc1	HCMV NEC inh 66
CCOC(=O)CSc1nc(N)c(C#N)c(-c2ccc(OCC)cc2)c1C#N	HCMV NEC inh 44
COc1cc(-c2c(C#N)c(N)nc(SCC(N)=O)c2C#N)cc(OC)c1OC	none (no result: HCMV NEC inh)
CCOc1ccc(-c2c(C#N)c(N)nc(SCC(=O)c3ccccc3)c2C#N)cc1	none
N#Cc1c(N)nc(SCC(=O)c2ccc3ccccc3c2)c(C#N)c1-c1ccccc1	HCMV NEC inh 21
CC(C)(C)C(=O)CSc1nc(N)c(C#N)c(-c2cccs2)c1C#N	HCMV NEC inh 60 (no result: GIV Gai3 FP)
CCOC(=O)CC(=O)CSc1nc(N)c(C#N)c(-c2cccs2)c1C#N	none (no result: HCMV NEC inh)
Fc1ccccc1-c1csc(-n2nccc2C(F)(F)F)n1	none (no result: GIV Gai3 FP)
Cc1ccc(-c2nc3n(CC(=O)NC4CC4)c4c(c(=O)n3n2)CCC4)cc1	none
O=C(NC(=NCc1ccncc1)Nc1ccc2c(c1)OCO2)c1cccc(Br)c1	none
Cc1cc2cc(CNC(=O)COc3ccccc3)ccc2[nH]1	none (no result: GIV Gai3 FP)
CCc1ccccc1N1C(=O)NC(=O)/C(=C\c2ccc(N(CC)CC)o2)C1=O	GIV Gai3 FP -59
CCOc1ccc(N2C(=O)NC(=O)/C(=C\c3ccc(Br)o3)C2=O)cc1	none (no result: HCMV NEC inh)
CN(C)c1cc(Nc2ccc(Cl)cc2)c2c3c(onc13)-c1ccccc1C2=O	none
CCNc1cc(N(C)C)c2noc3c2c1C(=O)c1ccccc1-3	GIV Gai3 FP -21 (no result: HCMV NEC inh)
CC1CCN(CCNc2cc(N(C)C)c3noc4c3c2C(=O)c2ccccc2-4)CC1	GIV Gai3 FP -4.4
Cc1ccc(Nc2cc(N(C)C)c3noc4c3c2C(=O)c2ccccc2-4)cc1	none (no result: HCMV NEC inh)
N#CCSc1nc2c(sc(=S)n2-c2ccccc2)c(=O)n1Cc1ccco1	none (no result: HCMV NEC inh)
NC(=S)c1cc2ccc(O)cc2oc1=O	none
